Among the data in BindingDB's records for doi:10.1021/jm0308904 (Universitat Hamburg, 2004) are IC50 values, retold here.

Amino acid sequences for entries named in this document (tags omitted).
UniProt Q00535, whole entry: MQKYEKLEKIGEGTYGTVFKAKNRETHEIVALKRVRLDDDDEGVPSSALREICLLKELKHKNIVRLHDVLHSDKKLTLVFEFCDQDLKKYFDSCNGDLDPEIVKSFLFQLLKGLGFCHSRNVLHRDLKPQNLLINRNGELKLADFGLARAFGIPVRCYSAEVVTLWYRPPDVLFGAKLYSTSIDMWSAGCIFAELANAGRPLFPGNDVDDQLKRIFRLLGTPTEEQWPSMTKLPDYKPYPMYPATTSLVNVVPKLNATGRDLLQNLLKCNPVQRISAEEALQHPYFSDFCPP

For this experiment, the target named is Cyclin-dependent kinase 5 activator 1 [99-307] (Homo sapiens, UniProt Q00535). Conditions: 30 °C.

pIC50: −log10 of the molar value.

With `CC(=O)Nc1ccc2[nH]c3c(c2c1)CC(=O)Nc1ccccc1-3` [NSC 716451], the negative logarithm of the IC50 (pIC50) is 5.26.

By pIC50 is commonly meant the negative decadic logarithm of the IC50, by convention in mol/L. Read a low pIC50 as a high IC50.
